Source: patent US8901147B2, “Bi-heteroaryl compounds as Vps34 inhibitors” (Novartis AG, priority 2010, dated 2014)

Chains of the proteins cited; added tags and fusions are not shown.
UniProt Q8NEB9, whole entry: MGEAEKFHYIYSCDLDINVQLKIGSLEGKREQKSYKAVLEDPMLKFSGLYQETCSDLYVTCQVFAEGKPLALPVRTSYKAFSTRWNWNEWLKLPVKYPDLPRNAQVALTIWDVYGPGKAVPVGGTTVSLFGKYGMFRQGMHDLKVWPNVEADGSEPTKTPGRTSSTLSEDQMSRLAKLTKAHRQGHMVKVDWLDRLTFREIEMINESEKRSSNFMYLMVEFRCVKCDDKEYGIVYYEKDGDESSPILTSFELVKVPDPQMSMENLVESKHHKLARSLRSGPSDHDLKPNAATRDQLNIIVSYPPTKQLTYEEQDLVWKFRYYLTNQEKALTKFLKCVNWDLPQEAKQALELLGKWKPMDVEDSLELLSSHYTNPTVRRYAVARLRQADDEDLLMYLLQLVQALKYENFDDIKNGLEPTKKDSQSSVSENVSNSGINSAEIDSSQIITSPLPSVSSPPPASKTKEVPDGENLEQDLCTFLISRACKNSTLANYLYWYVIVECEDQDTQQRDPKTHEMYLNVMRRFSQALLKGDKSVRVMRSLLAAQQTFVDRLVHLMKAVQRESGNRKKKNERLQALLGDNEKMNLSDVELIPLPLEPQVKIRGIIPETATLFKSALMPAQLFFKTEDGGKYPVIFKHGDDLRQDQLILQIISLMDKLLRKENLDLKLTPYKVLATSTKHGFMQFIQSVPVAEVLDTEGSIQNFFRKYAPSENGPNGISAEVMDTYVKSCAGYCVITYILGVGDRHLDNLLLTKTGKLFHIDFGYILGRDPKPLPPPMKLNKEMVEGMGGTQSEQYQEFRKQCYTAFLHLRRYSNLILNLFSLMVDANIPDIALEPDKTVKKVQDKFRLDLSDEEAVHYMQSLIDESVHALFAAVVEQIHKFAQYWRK

Biological target: recombinant human Vps34 (Homo sapiens, UniProt Q8NEB9)
Experiment: Vps34 KinaseGlo assay
Type: biochemical
Conditions: read-out: Vps34 IC50; KinaseGlo luminescence ATP detection; PI/OG substrate; 1 μM ATP; room temperature; 8 concentrations, n=2

Work on Nc1ncc(-c2ccnc(NC3CCNCC3)n2)c(CC2CC2)n1 yielded an IC50 of 6.62 µM.

In the case of CC(O)CNc1ncc(-c2ccnc(Nc3ccncc3)n2)c(CC2CC2)n1 (centres unmarked) [Example 10j, 1-(4′-(cyclopropylmethyl)-2-(pyridin-4-ylamino)-4,5′-bipyrimidin-2′-ylamino)propan-2-ol], the IC50 is reported as 0.0805 µM.
